Reference: PubChem BioAssay AID2255 (Sanford-Burnham Center for Chemical Genomics, 2010)
Active and inactive are the calls of the source.

Test system: NF-kB luciferase reporter cells, doxorubicin-induced
Experiment: PubChem AID 2255

IC50: inactive: > 25 µM
Structure (SMILES): Cc1ccc(S(=O)(=O)n2c(N)nc3ccccc32)cc1
